Assay results reported in US11629335B2, “Methods of improving vector transduction efficiency into T lymphocytes” (CELGENE CORPORATION, priority 2014, dated 2023).

Test system: primary human T lymphocytes
Experiment: Viability of primary human T lymphocytes after lentiviral transduction, by FACS
Conditions: 2-AP at 2.5 mM, 5 mM or 10 mM, with DD or PS, MOI 3

With Nc1ncc2[nH]cnc2n1 [2-AP, 2-Aminopurine] the “viability compared to cells cultured in the absence of 2-AP” value was “not reduced”.
